Results from ChEMBL document CHEMBL5385860, “Antiproliferative, antiangiogenic and apoptotic effect of new hybrids of quinazoline-4(3H)-ones and sulfachloropyridazine” (Eur J Med Chem, 2023).

Protein sequences, listed by entry. Tags and fused reporters are not part of them.
UniProt P15692, whole entry: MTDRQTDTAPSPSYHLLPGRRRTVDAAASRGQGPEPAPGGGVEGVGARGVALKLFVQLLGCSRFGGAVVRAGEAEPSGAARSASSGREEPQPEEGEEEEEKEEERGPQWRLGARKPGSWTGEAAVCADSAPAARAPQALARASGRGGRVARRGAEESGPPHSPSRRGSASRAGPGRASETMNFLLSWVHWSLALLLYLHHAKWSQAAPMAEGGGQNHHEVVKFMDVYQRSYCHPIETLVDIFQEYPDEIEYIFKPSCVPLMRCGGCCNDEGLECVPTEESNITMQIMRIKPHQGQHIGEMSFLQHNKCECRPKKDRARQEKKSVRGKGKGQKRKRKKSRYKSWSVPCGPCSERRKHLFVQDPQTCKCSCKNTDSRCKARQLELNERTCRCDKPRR

Target: Vascular endothelial growth factor A, long form (Homo sapiens) (UniProt P15692)
Experiment: Inhibition of VEGF-mediated cell migration in HUVEC cells assessed as wound closure at 10 ug/ml measured after 72 hrs by scratch-wound healing assay
Format: cell-based
Design: scale not given: the % may be the effect or the level left
Conditions: dose 10.0 µg/ml

Activity: 58.5%
Structure (SMILES): O=C(CSc1nc2ccccc2c(=O)n1CCc1ccccc1)Nc1ccc(S(=O)(=O)Nc2ccc(Cl)nn2)cc1
